Most compounds without a hit are left out; they make up all but 1.9% or so of the library.
FGF22 binding = binders of recombinant human FGF22 by thermal shift; SYPRO orange fluorescence; percent of sucrose octasulfate shift, DMSO zero; Q9HCT0; 340,000 tested, 1.5% active; activity (Tm shift, normalised), % at 9.99 µM;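 active = mean Tm shift, scaled 0 neutral to 100 positive control, at about 1.3% or above, every replicate too, limit read from the data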
ARNT-TACC3 inh = disruptors of human ARNT/TACC3 interaction; 390,000 tested, 0.66% active; AID 623870; Q9Y6A5; AlphaScreen His-ARNT PAS-B/GST-TACC3 binding, luminescence; TACC3 fragment carries E629A point mutation; inhibition, % at 9.99 µM;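 active = mean inhibition of replicates at least 50% and at least half of replicates each reaching 50%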;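 also: 0% = complete ARNT plus TACC3 wells and 100% = ARNT alone without TACC3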
ERp5 block = ERp5 (human) disulfide isomerase inhibition. Q15084. ERp5 insulin aggregation, absorbance 650 nm, 90 min. inhibition, % at 9.99 µM. 350,000 tested, 0.05% active. AID 651711;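 active = mean replicate inhibition above about 25%, with every replicate also reaching it, limit read from the data, passing the limit was not always enough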
PglD inh = PglD (C. jejuni) enzyme inhibition; purified PglD enzyme, DTNB colorimetric CoA detection; inhibition, % at 12.5 µM; 360,000 tested, 0.098% active; AID 602405; in the data active = inhibition above about 16%, passing the limit was not always enough
Yeast UUG start = modulators of start codon recognition fidelity in yeast; AID 602363; activity score, % at 18.7 µM; S. cerevisiae UUG-firefly luciferase reporter, luminescence/redox ratio; actives 0.13% (n = 350,000);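 active = replicate mean at a twofold rise or more, about +100% in these data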;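 note: firefly luciferase made from a UUG start codon reports start codon fidelity; reporter light over untreated wells divided by growth signal over untreated wells; some hits fall short of that in this replicate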
PDI inh = inhibitors of human protein disulfide isomerase; P07237; PDI insulin aggregation turbidity, A650, 90 min; inhibition, % at 10 µM; 350,000 tested, 0.052% active;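 active = mean inhibition across replicates of 30% or more, whatever share of single replicates reach that level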
* hit, by the source's call.

What do the screens show for `CC(=O)OCCNc1cc(N2CCN(C)CC2)c2noc3c2c1C(=O)c1ccccc1-3`?
FGF22 binding: -0.5; ARNT-TACC3 inh: 48.7*; ERp5 block: 3.0; PglD inh: -1.0; Yeast UUG start: -16.7; PDI inh: 1.8

What do the screens show for `CCN1CCN(c2cc(N3CCN(C(=O)c4ccco4)CC3)c3c4c(onc24)-c2ccccc2C3=O)CC1`?
ARNT-TACC3 inh: 43.2; PglD inh: -2.9; Yeast UUG start: -10.4; PDI inh: -10.9

What do the screens show for `CCOc1ccc2nc(NS(C)(=O)=O)sc2c1`?
ARNT-TACC3 inh: 4.0; PDI inh: -6.0

How did CCOc1ccc2nc(Cl)sc2c1 do in these assays?
FGF22 binding: 42.9*; ARNT-TACC3 inh: 3.7; ERp5 block: 5.2; PDI inh: 3.3

Results for CC(C)c1cn(CC[C@H]2CC[C@H](NC(=O)c3cccc(F)c3)[C@@H](CO)O2)nn1 ?
FGF22 binding: -0.2; ARNT-TACC3 inh: 5.0; ERp5 block: 1.9; PglD inh: 1.9; Yeast UUG start: -4.7

Results for CC(C)(C)c1ccc(/C=N/Nc2nncn2N)cc1 ?
FGF22 binding: 0.1; ARNT-TACC3 inh: -8.4; ERp5 block: 1.8; PglD inh: -3.7; Yeast UUG start: -19.4; PDI inh: -8.1

What do the screens show for `Nn1cnnc1N/N=C/c1cc(Br)cc(Br)c1O`?
ARNT-TACC3 inh: 48.9*; PDI inh: 3.6

Results for Cc1c(C(=O)OCC(=O)N2CC(C)CC(C)C2)oc2ccccc12 (stereo not given) ?
FGF22 binding: 45.9*; ARNT-TACC3 inh: -0.5; ERp5 block: -6.7; PglD inh: -6.4; Yeast UUG start: -10.7; PDI inh: 1.3

How did CCCNC(=O)N1CCC2(CC1)CN(C(=O)NC(C)C)[C@H](CO)c1c2c2ccc(OC)cc2n1C do in these assays?
FGF22 binding: -0.2; ERp5 block: -1.9

How did CCOn1c(=O)c(-c2ccc(C)cc2)[n+]([O-])c2ccccc21 do in these assays?
FGF22 binding: -0.2; ARNT-TACC3 inh: -10.8; ERp5 block: 1.0; PglD inh: 0.3; Yeast UUG start: -12.2; PDI inh: -13.8

How did CCOn1c(=O)c(-c2cccc([N+](=O)[O-])c2)[n+]([O-])c2ccccc21 do in these assays?
FGF22 binding: 43.8*; ERp5 block: -1.5; PDI inh: 4.3

How did Cc1ccc(NC(=O)c2nnn(-c3cccc(C(F)(F)F)c3)c2N)cc1 do in these assays?
FGF22 binding: 53.3*; ARNT-TACC3 inh: -9.0; ERp5 block: 2.6; PDI inh: 2.9

What do the screens show for `C[C@@H]1CCCCO[C@@H](CN(C)Cc2ccc(Cl)c(Cl)c2)[C@@H](C)CN([C@H](C)CO)C(=O)c2cc(NC(=O)C3CCCCC3)ccc2O1`?
FGF22 binding: -0.6; ARNT-TACC3 inh: -6.7; ERp5 block: -0.5; PglD inh: 1.0; Yeast UUG start: 0.4

Results for COCC(=O)N1[C@H](CO)[C@@H](c2ccccc2)[C@@H]1CN(C)C(=O)c1ccccc1 ?
FGF22 binding: 0.0; ARNT-TACC3 inh: -0.8; ERp5 block: 6.7; PglD inh: 1.3; Yeast UUG start: 6.1

What do the screens show for `O=C(NNC(=O)c1ccccn1)c1ccc(OC(F)F)cc1`?
FGF22 binding: -0.5; ARNT-TACC3 inh: 70.9*; ERp5 block: -16.8; PglD inh: 3.8; Yeast UUG start: -40.5; PDI inh: 11.1

The final two records of the part before lead into the next.
Results for COCC(=O)N1[C@H](CO)[C@@H](c2ccccc2)[C@@H]1CN(C)C(=O)c1ccccc1 ?
FGF22 binding: 0.0; ARNT-TACC3 inh: -0.8; ERp5 block: 6.7; PglD inh: 1.3; Yeast UUG start: 6.1

What do the screens show for `O=C(NNC(=O)c1ccccn1)c1ccc(OC(F)F)cc1`?
FGF22 binding: -0.5; ARNT-TACC3 inh: 70.9*; ERp5 block: -16.8; PglD inh: 3.8; Yeast UUG start: -40.5; PDI inh: 11.1

How did O=C(NCCc1ccccn1)c1ccc(OC(F)F)cc1 do in these assays?
FGF22 binding: 0.3; ARNT-TACC3 inh: -5.7; ERp5 block: 4.0; PglD inh: -2.8; Yeast UUG start: -22.8; PDI inh: -2.9

Results for O=C(O)CCc1ccc(-c2cccs2)n1CC(=O)Nc1ccccc1C(F)(F)F ?
FGF22 binding: 43.4*; ERp5 block: 3.5; PDI inh: 0.3

How did CCN(CC(=O)Nc1ccccc1C(F)(F)F)C(=O)CCc1ccccc1 do in these assays?
FGF22 binding: 0.1; ARNT-TACC3 inh: -0.1; ERp5 block: 11.7; PglD inh: -4.1; Yeast UUG start: 2.6; PDI inh: 11.8

How did O=C(CCc1ccccc1)Nc1ccccc1C(F)(F)F do in these assays?
FGF22 binding: 44.2*; ARNT-TACC3 inh: -1.5; ERp5 block: 3.4; PglD inh: -3.4; Yeast UUG start: 1.1; PDI inh: -4.1

What do the screens show for `C/C=C/c1ccc2c(c1)O[C@@H](CN(C)C(C)=O)[C@H](C)CN([C@H](C)CO)S2(=O)=O`?
FGF22 binding: 0.1; ARNT-TACC3 inh: -5.9; ERp5 block: -2.7; PglD inh: 3.3; Yeast UUG start: 17.0

Screening data as filed in PubChem.
